17 compounds from PubChem BioAssay AID924 (National Center for Advancing Translational Sciences (NCATS), 2007) can be followed below.

Structures are written as SMILES. Only a part is listed here, and it is no random draw. Some tests of the compounds listed are not included; inactive here does not mean inactive elsewhere. Results filed as inconclusive are left out. The source made the active and inactive calls. The call rests on the fitted dose curve; in most records, active means well fitted cell-killing curve with a large enough effect; inconclusive means small, poorly fitted or top-dose-only effect; inactive means no such curve, though single readings can be large or run the other way.

A short description of this experiment: qHTS Screen for Compounds that Selectively Target Cancer Cells with p53 Mutations: Cytotoxicity of p53ts Cells at the Permissive Temperature.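 Further: 0% = DMSO and -100% = full killing by reference compound; nearly all actives have a fitted effect of over 55% in size.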 The settings on record: H1299-p53A138V at 32C, ATP luminescence viability, 24 h; at 46.1 µM (top of the series) unless noted.
Take `CCOc1cccc(C(=O)NCC2(N(C)C)CCCCC2)c1`: the activity change, negative = cytotoxicity is inactive: -12.1%.
As for `CN(C)C1(CNC(=O)c2ccccc2[N+](=O)[O-])CCCCC1`, the figure is inactive: -4.69%; as for `CN(C)C1CCCC1OC(=O)C(O)(c1ccccc1)c1ccccc1` (configuration not stated), inactive: 27.4%.
The figure for `CCCCOc1ccccc1C(=O)NCC1(N(C)C)CCCCC1` is inactive: -5.69%; for `CN(C)C1(CNC(=O)c2cccc(Cl)c2)CCCCC1` it is inactive: -4.2%.
As for `CN(C)C1(CNC(=O)c2ccccc2F)CCCCC1`, the figure is inactive: 4.56%; as for `Cc1cccc(C(=O)NCC2(N(C)C)CCCCC2)c1`, inactive: -10.7%; as for `COc1cc(C(=O)NCC2(N(C)C)CCCCC2)cc(OC)c1OC`, inactive: -1.09%.
As for `CN(C)c1cccc(C(=O)NCC2(N(C)C)CCCCC2)c1`, the activity change, negative = cytotoxicity was inactive: -3.44%.
The figure for `CC(C)Oc1ccc(C(=O)NCC2(N(C)C)CCCCC2)cc1` is inactive: -6.55%; for `O=C(OC1CN2CCC1CC2)C(CO)(c1ccccc1)c1ccccc1` (configuration not stated) it is inactive: 4.7%; for `CN1CC[C@H](OC(=O)[C@](O)(c2ccccc2)C2CCCC2)C1` it is inactive: 2.48% [at 9.22 µM].
As to `COc1cccc(C(=O)NCC2(N3CCOCC3)CCCCC2)c1`, the activity change, negative = cytotoxicity was inactive: 2.81%.
As for `CN1CCC[C@H](OC(=O)[C@](O)(c2ccccc2)C2CCCC2)C1`, the figure is inactive: 2.59% [at 9.22 µM]; as for `CC(C)COc1ccc(C(=O)NCC2(N(C)C)CCCCC2)cc1`, inactive: -5.01%; as for `C=C(C)C#C[C@@](O)(C(=O)OC1CCN(C)CC1)c1ccccc1`, inactive: -3.9% [at 9.22 µM].
With `COc1ccc(C(=O)NCC2(N(C)C)CCCCC2)cc1Cl`, the activity change, negative = cytotoxicity is inactive: -9.53%.
